The record followed here is patent US20090291075A1, “BINDING AGENTS AND THEIR USE IN TARGETING TUMOR CELLS” (ALTAREX MEDICAL CORP., priority 2002, published 2009).

The test system of this assay is NIH:OVCAR-3 cells. Nature of the assay: Confocal microscopy for activated caspases (Phi-Phi-Lux, Propidium Iodide counterstain). It is filed as cell-based. Particulars: paclitaxel 1 μg/mL. The procedure: NIH:OVCAR-3 cells were grown in tissue chamber slides (NUNC) and treated with chemotherapeutic drugs for 4-48 h, washed and stained with Phi-Phi-Lux for 1 h. Cells were washed briefly again, fixed and counterstained with Propidium Iodide prior to analysis by confocal microscopy (Zeiss, Germany).

As for `CC(=O)O[C@H]1C(=O)[C@@]2(C)[C@H]([C@H](OC(=O)c3ccccc3)[C@]3(O)C[C@H](OC(=O)[C@H](O)[C@@H](NC(=O)c4ccccc4)c4ccccc4)C(C)=C1C3(C)C)[C@]1(OC(C)=O)CO[C@@H]1C[C@@H]2O` [paclitaxel], the “cells stained positive for activated caspase” value (4 h after treatment, only very few cells PI positive) is listed as “more than 60%”. The “cells found dead (PI)” value (24 h time point) was “about half of the cells were found dead”.
